Test results from article PMC10213791 (Acta Pharmaceutica Sinica. B, 2022).

Target: T1, eukaryotic translation initiation factor 2 alpha kinase 2 (EIF2AK2, PKR) (Homo sapiens, UniProt P19525, DEL338-350/H412N/C551A)
T1 sequence (P19525 with tags, fused parts or gaps DEL338-350/H412N/C551A): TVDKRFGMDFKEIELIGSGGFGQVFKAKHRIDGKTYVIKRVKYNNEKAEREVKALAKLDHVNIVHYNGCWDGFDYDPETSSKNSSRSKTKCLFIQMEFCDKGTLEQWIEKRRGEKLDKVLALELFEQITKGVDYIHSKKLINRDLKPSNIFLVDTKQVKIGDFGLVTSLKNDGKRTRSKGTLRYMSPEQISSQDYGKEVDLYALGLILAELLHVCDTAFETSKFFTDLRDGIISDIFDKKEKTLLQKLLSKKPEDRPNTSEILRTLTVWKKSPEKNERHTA
Assay: SPR
Format: binding

## COc1ccc2cc3[n+](cc2c1OC)CCc1cc2c(cc1-3)OCO2 [BBR, berberine]
  Kd: 7.12 µM
